Measured values taken from ChEMBL document CHEMBL1157721, “Bisquaternary pyridinium oximes: Comparison of in vitro reactivation potency of compounds bearing aliphatic linkers and heteroaromatic linkers for paraoxon-inhibited electric eel and recombinant human acetylcholinesterase” (2010).

Sequences of proteins named here, by UniProt entry; tags and fusion partners are left off. A change or cut given only in a name is not applied to a line headed by its entry.
UniProt O42275: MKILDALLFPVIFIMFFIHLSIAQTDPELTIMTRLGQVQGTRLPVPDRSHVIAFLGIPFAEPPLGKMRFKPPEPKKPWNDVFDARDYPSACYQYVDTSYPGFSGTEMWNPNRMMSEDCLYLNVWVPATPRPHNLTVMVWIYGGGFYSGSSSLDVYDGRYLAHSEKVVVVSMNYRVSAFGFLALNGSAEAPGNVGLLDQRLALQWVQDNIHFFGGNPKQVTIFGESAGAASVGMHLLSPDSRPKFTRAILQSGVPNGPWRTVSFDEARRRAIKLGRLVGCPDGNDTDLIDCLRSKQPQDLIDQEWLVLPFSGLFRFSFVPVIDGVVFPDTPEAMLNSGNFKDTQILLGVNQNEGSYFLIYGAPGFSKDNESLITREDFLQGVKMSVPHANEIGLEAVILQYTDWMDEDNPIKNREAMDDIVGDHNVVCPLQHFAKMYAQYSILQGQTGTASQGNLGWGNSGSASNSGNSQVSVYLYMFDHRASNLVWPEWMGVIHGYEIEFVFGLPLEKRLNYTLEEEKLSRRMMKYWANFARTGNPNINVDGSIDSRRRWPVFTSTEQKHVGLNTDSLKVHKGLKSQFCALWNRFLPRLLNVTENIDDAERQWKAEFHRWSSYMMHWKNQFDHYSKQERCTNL
UniProt P22303: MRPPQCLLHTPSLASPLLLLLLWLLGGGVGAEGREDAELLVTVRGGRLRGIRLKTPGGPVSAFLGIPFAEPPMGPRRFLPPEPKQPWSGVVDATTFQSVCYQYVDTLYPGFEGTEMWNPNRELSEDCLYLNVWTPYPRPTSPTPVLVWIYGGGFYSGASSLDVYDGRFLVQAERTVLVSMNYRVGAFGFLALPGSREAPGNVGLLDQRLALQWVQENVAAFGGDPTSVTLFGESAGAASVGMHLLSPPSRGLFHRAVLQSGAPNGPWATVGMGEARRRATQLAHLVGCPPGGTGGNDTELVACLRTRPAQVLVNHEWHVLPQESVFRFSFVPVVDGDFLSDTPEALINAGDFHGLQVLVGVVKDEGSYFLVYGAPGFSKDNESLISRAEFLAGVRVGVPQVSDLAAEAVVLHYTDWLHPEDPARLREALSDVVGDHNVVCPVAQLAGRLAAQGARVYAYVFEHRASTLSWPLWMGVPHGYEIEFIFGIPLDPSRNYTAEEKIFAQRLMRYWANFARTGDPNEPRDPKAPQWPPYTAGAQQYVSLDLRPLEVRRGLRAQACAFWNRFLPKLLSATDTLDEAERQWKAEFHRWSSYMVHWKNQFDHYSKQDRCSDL

What was measured:
[1] = molecular target: Acetylcholinesterase (Electrophorus electricus) (UniProt O42275); assay: Reactivation of paraoxon-inhibited electric eel AChE assessed as enzyme activation at 100 uM by Ellman's assay; parameters: scale not given: the % may be the effect or the level left
[2] = molecular target: Acetylcholinesterase (Electrophorus electricus) (UniProt O42275); assay: Reactivation of paraoxon-inhibited electric eel AChE assessed as enzyme activation at 1 mM by Ellman's assay; parameters: scale not given: the % may be the effect or the level left
[3] = molecular target: Acetylcholinesterase (Homo sapiens) (UniProt P22303); assay: Reactivation of paraoxon-inhibited human recombinant AChE assessed as enzyme activation at 100 uM by Ellman's assay; parameters: scale not given: the % may be the effect or the level left
[4] = molecular target: Acetylcholinesterase (Electrophorus electricus) (UniProt O42275); assay: Reactivation of paraoxon-inhibited electric eel AChE assessed as enzyme activation at 10 uM by Ellman's assay; parameters: scale not given: the % may be the effect or the level left
[5] = molecular target: Acetylcholinesterase (Homo sapiens) (UniProt P22303); assay: Reactivation of paraoxon-inhibited human recombinant AChE assessed as enzyme activation at 1 mM by Ellman's assay; parameters: scale not given: the % may be the effect or the level left
[6] = molecular target: Acetylcholinesterase (Homo sapiens) (UniProt P22303); assay: Reactivation of paraoxon-inhibited human recombinant AChE assessed as enzyme activation at 10 uM by Ellman's assay; parameters: scale not given: the % may be the effect or the level left
[7] = molecular target: Acetylcholinesterase (Homo sapiens) (UniProt P22303); assay: Inhibition of human recombinant AChE at 10 uM by Ellman's assay
[8] = molecular target: Acetylcholinesterase (Electrophorus electricus) (UniProt O42275); assay: Inhibition of electric eel AChE at 10 uM by Ellman's assay
[9] = molecular target: Acetylcholinesterase (Electrophorus electricus) (UniProt O42275); assay: Inhibition of electric eel AChE at 100 uM by Ellman's assay
[10] = molecular target: Acetylcholinesterase (Homo sapiens) (UniProt P22303); assay: Inhibition of human recombinant AChE at 1 mM by Ellman's assay
[11] = molecular target: Acetylcholinesterase (Electrophorus electricus) (UniProt O42275); assay: Inhibition of electric eel AChE at 1 mM by Ellman's assay
[12] = molecular target: Acetylcholinesterase (Homo sapiens) (UniProt P22303); assay: Inhibition of human recombinant AChE at 100 uM by Ellman's assay

Structure (SMILES)	Activity [1] [%]	Activity [2] [%]	Activity [3] [%]	Activity [4] [%]	Activity [5] [%]	Activity [6] [%]	inhibition [7] [%]	inhibition [8] [%]	inhibition [9] [%]	inhibition [10] [%]	inhibition [11] [%]	inhibition [12] [%]
O/N=C/c1cc[n+](CCCC[n+]2ccc(/C=N/O)cc2)cc1	58	28	26	68	0	14	–	–	–	–	–	–
NC(=O)c1cc[n+](CCC[n+]2ccccc2/C=N/O)cc1	18	16	4	3	1	1	–	–	–	–	–	–
NC(=O)c1cc[n+](CCC[n+]2cccc(/C=N/O)c2)cc1	28	38	12	4	19	2	–	–	–	–	–	–
NC(=O)c1cc[n+](-c2ccc(-[n+]3ccc(/C=N/O)cc3)s2)cc1	52	17	6	49	1	7	0	0	5	82	55	15
O/N=C/c1cc[n+](-c2ccc(-[n+]3ccc(/C=N/O)cc3)s2)cc1	24	3	5	47	0	11	0	3	28	85	87	31
O/N=C/c1cccc[n+]1-c1ccc(-[n+]2ccccc2/C=N/O)o1	10	3	1	2	3	1	–	–	–	–	–	–
O/N=C/c1ccc[n+](CCCC[n+]2cccc(/C=N/O)c2)c1	45	21	11	22	1	3	–	–	–	–	–	–
O/N=C/c1cc[n+](-c2cc(-[n+]3ccc(/C=N/O)cc3)on2)cc1	29	4	7	31	0	4	–	–	–	–	–	–
NC(=O)c1cc[n+](CCCC[n+]2cccc(/C=N/O)c2)cc1	40	38	13	9	20	2	–	–	–	–	–	–
O/N=C/c1cccc[n+]1CCC[n+]1ccccc1/C=N/O	5	0	1	7	1	1	–	–	–	–	–	–
O/N=C/c1ccc[n+](-c2ccc(-[n+]3cccc(/C=N/O)c3)o2)c1	14	7	5	8	0	1	–	–	–	–	–	–
NC(=O)c1cc[n+](CCC[n+]2ccc(/C=N/O)cc2)cc1	80	77	35	56	64	10	–	–	–	–	–	–
NC(=O)c1cc[n+](-c2ccc(-[n+]3ccc(C(N)=O)cc3)o2)cc1	1	0	0	0	0	0	–	–	–	–	–	–
O/N=C/c1cc[n+](-c2ccc(-[n+]3ccc(/C=N/O)cc3)o2)cc1	38	6	15	52	0	7	0	0	16	78	74	16
O/N=C/c1ccc[n+](-c2cc(-[n+]3cccc(/C=N/O)c3)on2)c1	0	0	0	1	1	1	–	–	–	–	–	–
O/N=C/c1cccc[n+]1CCCC[n+]1ccccc1/C=N/O	6	0	1	33	0	3	–	–	–	–	–	–
NC(=O)c1cc[n+](-c2ccc(-[n+]3cccc(/C=N/O)c3)s2)cc1	13	5	2	3	0	2	–	–	–	–	–	–
NC(=O)c1cc[n+](CCCC[n+]2ccccc2/C=N/O)cc1	74	59	20	25	12	4	–	–	–	–	–	–
O/N=C/c1cc[n+](CCC[n+]2ccc(/C=N/O)cc2)cc1	–	–	–	–	–	–	0	0	0	23	29	13
O/N=C/c1cccc[n+]1COC[n+]1ccccc1/C=N/O	21	6	3	12	0	3	–	–	–	–	–	–
O/N=C\c1ccc[n+](CCC[n+]2cccc(/C=N/O)c2)c1	50	56	10	15	1	2	–	–	–	–	–	–
CCOP(=O)(OCC)Oc1ccc([N+](=O)[O-])cc1	–	–	–	–	–	–	100	100	100	–	–	100
O/N=C\c1ccc[n+](COC[n+]2cccc(/C=N/O)c2)c1	19	49	4	3	1	2	–	–	–	–	–	–
O/N=C/c1cccc[n+]1-c1cc(-[n+]2ccccc2/C=N/O)on1	0	0	1	0	0	1	–	–	–	–	–	–
O/N=C/c1cccc[n+]1-c1ccc(-[n+]2ccccc2/C=N/O)s1	42	2	14	59	0	5	0	0	0	42	62	0
O/N=C/c1ccc[n+](-c2ccc(-[n+]3cccc(/C=N/O)c3)s2)c1	2	0	2	14	0	4	–	–	–	–	–	–
